{"source": "paper PMC3676450", "about": "(Journal of medicinal chemistry, 2013)", "tested_on": "oxotremorine-evoked [3H]DA release from rat striatal slices", "conditions": "1 μM", "data": [{"molecule": "CN1[C@@H]2C[C@@H](OC(=O)[C@H](CO)c3ccccc3)C[C@H]1[C@@H]1O[C@@H]12", "note": "[Compound 1, scopolamine]", "values": [{"measurement": "inhibition of oxotremorine-mediated [3H]DA release (in words)", "result": "completely inhibits"}]}]}
